The text below walks through data of ChEMBL document CHEMBL1129261, “De novo antimicrobial peptides with low mammalian cell toxicity” (1996).

Type in all cases: functional
Assay [1] concerns Escherichia coli. Nature of the assay: Compound was evaluated for antibacterial activity against Escherichia coli. In outline:
(§1)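 Broth microdilution MIC against E. coli ATCC 25922, P. aeruginosa ATCC 27853, S. aureus ATCC 25723. Cultures grown to midlog phase in nutrient broth, standardized to 0.5 McFarland, diluted to 5 × 10^4 cells per well. Equal volume of peptide added, 1:2 serial dilutions giving 256-2 µg/mL in medium. MIC is the lowest concentration with no turbidity […]. Median of three to seven tests.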

In assay [2] the test system is Pseudomonas aeruginosa. Nature of the assay: Compound was evaluated for antibacterial activity against Pseudomonas aeruginosa. The gist of the method: as §1
Assay [3] deals with Staphylococcus aureus. Description: Compound was evaluated for antibacterial activity against Staphylococcus aureus. In outline: as §1

Molecules are shown by their SMILES. ≈ marks a conversion by molar mass, not a printed value.

With `CC[C@H](C)[C@H](NC(=O)CN)C(=O)NCC(=O)N[C@@H](C)C(=O)N[C@H](C(=O)N[C@@H](CC(C)C)C(=O)N[C@@H](CCCCN)C(=O)N[C@H](C(=O)N[C@@H](CC(C)C)C(=O)N[C@H](C(=O)N[C@H](C(=O)NCC(=O)N[C@@H](CC(C)C)C(=O)N1CCC[C@H]1C(=O)N[C@@H](C)C(=O)N[C@@H](CC(C)C)C(=O)N[C@H](C(=O)N[C@@H](CO)C(=O)N[C@@H](Cc1c[nH]c2ccccc12)C(=O)N[C@H](C(=O)N[C@@H](CCCCN)C(=O)N[C@@H](CCCNC(=N)N)C(=O)N[C@@H](CCCCN)C(=O)N[C@@H](CCCNC(=N)N)C(=O)N[C@@H](CCC(N)=O)C(=O)N[C@@H](CCC(N)=O)C(N)=O)[C@@H](C)CC)[C@@H](C)CC)[C@@H](C)O)[C@@H](C)O)C(C)C)C(C)C` [MELITTIN], the values for the minimum inhibitory concentration (MIC) in assay [1], in assay [2] and in assay [3] were 3 µM (≈ 8.54 µg/mL), 6 µM (≈ 17.1 µg/mL) and 3 µM (≈ 8.54 µg/mL), respectively.

The MIC is the least concentration at which growth counts as inhibited. Lower therefore signals greater potency.
